Measurements as given in PubChem BioAssay (EPA / NIEHS).
Where “and” joins values, the source holds several entries; their conditions need not be identical. Equal values may be shown once. The entries are a selection whose mix differs from that of the whole data set. Results filed as inconclusive are left out. Calls of active or inactive are those of the source. How the source made its calls, unless noted: active means hit-call score of the fitted dose curve at least 0.9, where 1 is the maximum; inactive means score below 0.9.

Amino acid sequences for entries named in this document (tags omitted).
UniProt Q16656, whole entry: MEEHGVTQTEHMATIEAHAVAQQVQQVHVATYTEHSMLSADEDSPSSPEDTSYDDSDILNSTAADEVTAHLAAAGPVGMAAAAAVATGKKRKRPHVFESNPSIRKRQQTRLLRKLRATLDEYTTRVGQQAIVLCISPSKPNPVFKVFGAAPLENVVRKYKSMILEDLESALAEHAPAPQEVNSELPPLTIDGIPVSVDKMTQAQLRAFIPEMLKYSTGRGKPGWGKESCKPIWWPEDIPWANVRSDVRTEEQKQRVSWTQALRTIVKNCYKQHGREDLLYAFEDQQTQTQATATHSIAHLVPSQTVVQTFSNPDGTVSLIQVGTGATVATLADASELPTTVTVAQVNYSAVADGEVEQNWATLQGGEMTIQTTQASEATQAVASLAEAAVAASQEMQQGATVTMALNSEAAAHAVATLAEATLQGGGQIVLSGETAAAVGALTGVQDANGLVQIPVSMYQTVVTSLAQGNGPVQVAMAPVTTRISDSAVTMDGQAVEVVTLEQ
UniProt P08684, whole entry: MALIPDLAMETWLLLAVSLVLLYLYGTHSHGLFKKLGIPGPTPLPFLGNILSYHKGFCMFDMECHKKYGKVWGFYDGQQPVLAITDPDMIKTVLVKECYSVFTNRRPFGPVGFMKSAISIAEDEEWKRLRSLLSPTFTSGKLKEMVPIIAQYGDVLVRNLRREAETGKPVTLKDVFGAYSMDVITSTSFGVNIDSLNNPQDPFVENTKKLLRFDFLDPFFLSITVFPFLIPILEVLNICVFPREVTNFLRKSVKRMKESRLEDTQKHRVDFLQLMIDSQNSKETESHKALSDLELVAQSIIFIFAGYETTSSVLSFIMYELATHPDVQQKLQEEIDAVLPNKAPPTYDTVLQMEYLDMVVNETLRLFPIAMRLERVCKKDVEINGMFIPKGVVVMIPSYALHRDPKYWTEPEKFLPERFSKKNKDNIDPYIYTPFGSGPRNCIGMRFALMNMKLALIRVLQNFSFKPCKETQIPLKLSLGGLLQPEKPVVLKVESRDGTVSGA

What was measured:
[1] = ATG_CRE_CIS: Attagene CIS-FACTORIAL HepG2 Assay for human cAMP Responsive Element (CRE) binding protein 3 (AID 2282926); conditions: HepG2 CRE cis-reporter, Attagene multiplexed mRNA; actives raise or lower the signal
How it was run: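 Induced reporter mRNA from a CRE cis element, measured in HepG2 among many multiplexed units at 24 h. Detection used RT-PCR plus capillary electrophoresis of fluorescent fragments; DMSO served as negative control.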

[2] = ATG_EGR_CIS: Attagene CIS-FACTORIAL HepG2 Assay for human Early Growth Response 1 (EGR1) (AID 2282938); conditions: HepG2 Attagene CIS-FACTORIAL EGR reporter mRNA; actives raise or lower the signal
How it was run: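 Endogenous TF activity in HepG2 liver cells was gauged through cis-promoter reporter constructs transiently transfected. After 24 h dosing, reporter mRNA was quantified by RT-PCR and capillary electrophoresis, and curves fitted in both directions versus DMSO.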

[3] = ATG_GLI_CIS: Attagene CIS-FACTORIAL HepG2 Assay for human Zinc Finger Protein GLI1 (AID 2282945); conditions: HepG2, Attagene cis-factorial reporter mRNA, GLI element; actives raise or lower the signal
How it was run: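 HepG2 cells transiently transfected with cis-promoter multiplexed reporter units report endogenous transcription factor activity. After 24 h chemical exposure, reporter mRNA was quantified by RT-PCR, 6-FAM labelling, HpaI digestion and capillary electrophoresis, with bidirectional fitting against DMSO.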

[4] = ATG_ISRE_CIS: Attagene CIS-FACTORIAL HepG2 Assay for human Interferon Regulatory Factor 1 (IRF1) binding to an Interferon-Stimulated Response Element (ISRE) (AID 2282948); conditions: HepG2 ISRE cis-reporter (Attagene), mRNA transcription readout; actives raise or lower the signal
How it was run: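 Multiplexed mRNA reporter readout in human liver HepG2 cells: cis-element-driven reporters transfected, compound added for 24 h, transcripts amplified, fluorescently labelled and sized by capillary electrophoresis; curve fitting bidirectional against DMSO.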

[5] = target: Nuclear respiratory factor 1 (Homo sapiens) (UniProt Q16656); experiment: ATG_NRF1_CIS: Attagene CIS-FACTORIAL HepG2 Assay for human Nuclear Respiratory Factor 1 (NRF1) Orphan Gene (AID 2282987); conditions: HepG2 NRF1 cis-element reporter, Attagene multiplex; actives raise or lower the signal
How it was run: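 Fluorescence intensity of labelled reporter cDNA fragments, resolved by capillary electrophoresis, served as readout for NRF1 cis-element activity. Transiently transfected HepG2 cells were dosed for 24 hours; activity in either direction was fitted against DMSO negative control.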

[6] = ATG_NF_kB_CIS: Attagene CIS-FACTORIAL HepG2 Assay for human Nuclear Factor Kappa B (NF-kB) (AID 2282991); conditions: HepG2 Attagene cis-factorial NF-kB reporter mRNA; actives raise or lower the signal
How it was run: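 Endogenous transcription factor activity in HepG2 was captured via cis-regulated reporter constructs; after 24 h dosing, reporter mRNA was reverse-transcribed, amplified, fluorescently labelled and sized by capillary electrophoresis, with activity fitted bidirectionally relative to DMSO.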

[7] = ATG_XTT_Cytotoxicity: Cytotoxicity Assessment in the Attagene TRANS-FACTORIAL HepG2 Assay (AID 2283584; active means hit-call score of the fitted dose curve at least 0.9, where 1 is the maximum;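 further: XTT signal for cell number as viability in transfected HepG2 cells; cells exposed to compound for 24 h before reading; active means loss of viability signal versus DMSO baseline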)
How it was run: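 HepG2 cells transiently transfected with GAL4-UAS multiple reporter units, dosed 24 h; cytotoxicity read by XTT as loss of signal versus DMSO baseline.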

[8] = read-out: catalase (CAT), CAT (gene 847); experiment: LTEA_HepaRG_CAT: Life Technologies and Expression Analysis (LTEA) Assay for catalase (CAT) using HepaRG (AID 2283452); conditions: actives raise or lower the signal; mRNA level, 48 h;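 further: TaqMan qRT-PCR signal normalized to ACTB GAPDH and POLR2A housekeeping genes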
How it was run: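 Differentiated HepaRG cells in serum-free induction medium were dosed 48 h in duplicate, eight half-log concentrations from 100 uM in 0.5% DMSO. Transcript measured by TaqMan qRT-PCR, normalised to ACTB/GAPDH/POLR2A, fitted bidirectionally against DMSO.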

[9] = read-out: Apolipoprotein A-V (APOA5) gene, APOA5 (gene 116519); experiment: LTEA_HepaRG_APOA5: Life Technologies and Expression Analysis (LTEA) Assay for Apolipoprotein A-V (APOA5) gene using HepaRG (AID 2283474); conditions: actives raise or lower the signal; mRNA level, 48 h
How it was run: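 Differentiated HepaRG cells in serum-free induction medium, exposed 48 h in duplicate to eight half-log concentrations topping at 100 uM (0.5% DMSO). APOA5 mRNA by Fluidigm TaqMan qRT-PCR, normalized to ACTB, GAPDH and POLR2A; bidirectional fit versus DMSO.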

[10] = read-out: Glutathione S-Transferase (GSTA2), GSTA2 (gene 2939); experiment: LTEA_HepaRG_GSTA2: Life Technologies and Expression Analysis (LTEA) Assay for Glutathione S-Transferase (GSTA2) using HepaRG (AID 2283497); conditions: actives raise or lower the signal; mRNA level, 48 h
How it was run: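 Oxidative-stress marker GSTA2 is quantified by TaqMan qRT-PCR in HepaRG cultures treated 48 h across an eight-point range to 100 uM. Expression is normalized to endogenous controls and compared with 0.5% DMSO vehicle.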

[11] = read-out: 3-Hydroxy-3-Methylglutaryl-CoA Synthase 2 (HMGCS2), HMGCS2 (gene 3158); experiment: LTEA_HepaRG_HMGCS2: Life Technologies and Expression Analysis (LTEA) Assay for 3-Hydroxy-3-Methylglutaryl-CoA Synthase 2 (HMGCS2) using HepaRG (AID 2283504); conditions: actives raise or lower the signal; mRNA level, 48 h
How it was run: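 Human HepaRG cells in serum-free induction medium were exposed in duplicate for 48 h to 8-point half-log series from 100 uM top in 0.5% DMSO. HMGCS2 mRNA measured by TaqMan qRT-PCR, normalised to ACTB, GAPDH, POLR2A; bidirectional fit versus DMSO.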

[12] = read-out: Tumor necrosis factor receptor 1 (TNFRSF1A), TNFRSF1A (gene 7132); experiment: LTEA_HepaRG_TNFRSF1A: Life Technologies and Expression Analysis (LTEA) Assay for Tumor necrosis factor receptor 1 (TNFRSF1A) using HepaRG (AID 2283535); conditions: actives raise or lower the signal; mRNA level, 48 h
How it was run: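 Differentiated HepaRG cells in serum-free induction medium, exposed 48 h in duplicate to 8 half-log concentrations up to 100 uM in 0.5% DMSO. TNFRSF1A mRNA by Fluidigm TaqMan qRT-PCR, normalized to ACTB, GAPDH, POLR2A; bidirectional fit.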

[13] = CCTE_Mundy_HCI_Cortical_Synap_Neur_Matur_NeuriteCount: CCTE's Synaptogenesis and Neurite Maturation Assay in rat cortical cells for Neurite Count, Mundy Lab (AID 2284222)
How it was run: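 Rat primary cortical cells; AraC added at DIV 5, chemicals dosed with media change at DIV 7 through DIV 12. MAP2/synaptophysin/Hoechst immunostaining, high-content imaging of neurite number; fitted relative to DMSO.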

[14] = read-out: Cytochrome P450 3A4 (Homo sapiens) (UniProt P08684); experiment: LTEA_HepaRG_CYP3A4: Life Technologies and Expression Analysis (LTEA) Assay for CYP3A4 using HepaRG (AID 2283487); conditions: actives raise or lower the signal; mRNA level, 48 h
How it was run: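 Differentiated HepaRG cells in serum-free induction medium exposed in duplicate for 48 h to 8 half-log concentrations up to 100 uM in 0.5% DMSO. CYP3A4 mRNA measured by qRT-PCR normalized to ACTB, GAPDH and POLR2A; bidirectional fit versus DMSO.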

CYP2E1 (gene 1571) = experiment: LTEA_HepaRG_CYP2E1: Life Technologies and Expression Analysis (LTEA) Assay for CYP2E1 using HepaRG (AID 2283485); conditions: actives raise or lower the signal; mRNA level, 48 h
How it was run: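 CYP2E1 transcript was measured by TaqMan qRT-PCR in human HepaRG cultures after 48 h chemical exposure (top 100 uM, half-log steps, 0.5% DMSO vehicle). Housekeeping-gene normalization; gain or loss fitted relative to DMSO baseline.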

Measured: AC50

O=[As]c1ccccc1 (stereo not given)
active: [1] 0.295 µM | [2] 0.332 µM | [3] 0.469 µM | [4] 0.323 µM | [5] 0.332 µM | [6] 0.234 µM | [7] 1.34 µM

CC(C)OP(=S)(OC(C)C)SCCNS(=O)(=O)c1ccccc1
active: [8] 74.5 µM | [9] 58.8 µM | [10] 77.7 µM | [11] 71.4 µM | [12] 78.7 µM | [13] 74.5 µM and 57.2 µM

Cc1c([N+](=O)[O-])cccc1[N+](=O)[O-]
active: [14] 18.2 µM

Cc1ccc([N+](=O)[O-])cc1[N+](=O)[O-]
active: CYP2E1 (gene 1571) 17.9 µM
